Assay results reported in PubChem BioAssay AID642 (Vanderbilt High Throughput Screening Facility, 2007).
Only a part is listed here, and it is no random draw. Active and inactive are the calls of the source.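 How the source made its calls: active means luminescence in either of two replicates above the same-plate mean plus 3 SD of the low-dose dopamine control; inactive means the rest.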

Sequences of proteins named here, by UniProt entry; tags and fusion partners are left off.
UniProt P21728, whole entry: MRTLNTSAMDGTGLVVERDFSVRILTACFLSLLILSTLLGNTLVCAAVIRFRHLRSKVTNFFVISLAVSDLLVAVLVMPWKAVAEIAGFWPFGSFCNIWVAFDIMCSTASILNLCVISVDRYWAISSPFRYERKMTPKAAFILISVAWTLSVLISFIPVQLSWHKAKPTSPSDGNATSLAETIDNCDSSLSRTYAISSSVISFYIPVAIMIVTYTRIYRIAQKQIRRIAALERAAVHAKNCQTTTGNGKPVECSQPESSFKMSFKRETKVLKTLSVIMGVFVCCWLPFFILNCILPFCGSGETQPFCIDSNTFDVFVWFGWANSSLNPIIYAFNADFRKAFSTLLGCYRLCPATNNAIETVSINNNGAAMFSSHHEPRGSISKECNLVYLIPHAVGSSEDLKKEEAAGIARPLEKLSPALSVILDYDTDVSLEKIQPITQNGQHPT

What follows are compounds tested against D(1A) dopamine receptor (Homo sapiens) (UniProt P21728) (assay: potentiation of dopamine EC30 D1 response – cell-based, HEK293 D1, CRE-luciferase, duplicate, confirmation (AID 642)). Conditions: at 10 µM, active compounds read high.

SMILES	luminescence
CCOc1ncccc1C(=O)NCC1(N2CCOCC2)CCCCC1	active: 20500
